Assay: Single ascending dose (SAD) pharmacokinetics in healthy volunteers
Type: in vivo, human
Details: single doses, from 25 to 150 mg and then from 300 to 1000 mg

dose proportionality of plasma Cmax and AUCinf: dose‐proportional
Compound: CC(=O)N1CCC(COc2cc(F)c3c(=O)[nH]c(CSC4CCOCC4)nc3c2)CC1 [RBN‐3143]

— publication PMC12209991 (Clinical Pharmacology in Drug Development, 2025)
